The values that follow come from patent US9938222B2 (BRISTOL-MYERS SQUIBB COMPANY, priority 2014, dated 2018).

Protein sequences, listed by entry. Tags and fused reporters are not part of them.
UniProt Q5NUL3, whole entry: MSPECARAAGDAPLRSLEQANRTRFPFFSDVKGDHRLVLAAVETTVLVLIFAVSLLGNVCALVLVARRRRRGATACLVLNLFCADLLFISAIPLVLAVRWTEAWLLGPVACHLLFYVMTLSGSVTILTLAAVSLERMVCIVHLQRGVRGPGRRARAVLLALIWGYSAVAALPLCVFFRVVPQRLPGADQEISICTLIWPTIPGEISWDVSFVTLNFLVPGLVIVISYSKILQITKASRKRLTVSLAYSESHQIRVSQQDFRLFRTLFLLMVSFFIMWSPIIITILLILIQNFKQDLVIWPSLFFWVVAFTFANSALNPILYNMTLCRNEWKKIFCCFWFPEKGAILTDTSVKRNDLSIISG

The assay addresses human GPR120 (Homo sapiens (Human), UniProt Q5NUL3). The experiment in a line: GPR120 pERK AlphaScreen SureFire Assay (human GPR120 pERK assay). The note with it: CHO cells stably transfected with short form of human GPR120. An excerpt: GPR120 activity was monitored by measuring phosphorylation of ERK (pERK), since G protein receptors are known to activate the ERK signaling cascade either directly and/or through recruitment of arrestin that serves as a scaffold for downstream signaling events.
GPR120 pERK AlphaScreen SureFire Assay
The human and mouse GPR120-mediated intracellular phosphorylated ERK assays were established using CHOA12 cells stably transfected with the short form of human or mouse GPR120 receptor. Cells were cultured in growth medium consisting of F-12 media (Invitrogen Cat. #11765) with 5% Charcoal/Dextran FBS (Invitrogen Cat. #12676-029), 500 μg/mL GENETICIN® (Life Technologies Cat. #10131-027) and 250 μg/mL Zeocin (Invitrogen Cat. #R250-01). Cells were cryo-preserved at a concentration of 2×10^7 cells/mL, in 90% Charcoal/Dextran FBS and 10% DMSO, and frozen in liquid nitrogen at a low passage number.
For the pERK assay, 2×10^7 cells/mL cryopreserved human and mouse cells were thawed rapidly in a 37° C. water bath and added to a T-225 flask containing 50 mL growth medium. The flasks were placed in a tissue culture incubator overnight (37° C., 5% CO2). The next day, cells were harvested with trypsin (Gibco Cat. #25300-054), resuspended in serum-containing growth medium and counted using a Cellometer and volume adjusted to a concentration of 0.6×10^6 cells/mL. Cells were plated into 384-well clear bottom tissue culture plates (BD Cat. #353962) at 50 μL/well, for a density of 30,000 cells/well using a MULTIDROP® and incubated for 16-18 hours (overnight) at 37° C. with 5% CO2. The next day, cells were serum starved in 30 μL of F-12 media without any serum or antibiotics for 2 hours at 37° C.
Test compounds were 3-fold, 11-point serially diluted in DMSO in a REMP assay plate (Matrix Cat. #4307) by Tecan and 5 μL was transferred into an ECHO source plate (Labcyte Cat. #LC-0200). Cells were then stimulated with 50 nL of compound dilutions using ECHO liquid handler for 7 min at 37° C. Compounds ranged from final assay concentrations of 33.33 μM to 0.56 nM.
The media was then dumped and cells lysed with 20 μL of 1× Lysis buffer from the AlphaScreen SureFire Phospho-ERK 1/2 Kit (Perkin Elmer Cat. #6760617M). The lysis buffer was diluted 5-fold with water before use. The plate was agitated on a shaker for 10 min after which 2 μL was transferred into a 384-well white proxiplate (Perkin Elmer Cat. #6008289). The SureFire assay reagent mix was prepared by mixing 60 parts Reaction Buffer, 10 parts Activation Buffer, 1 part Donor Beads, 1 part Acceptor Beads (Perkin Elmer Cat. #TGRES10K). 3.5 μL/well of this reagent mix was manually added to the proxiplate with a multichannel pipettor. Plates were spun down at 1000 rpm for 2 min, followed by light-protected incubation at room temperature for 2 hours. The plates were read on the Alpha-technology compatible Envision multilabel plate reader using AlphaScreen protocol according to manufacturer's specifications. The agonist effect of compounds was expressed as 100×(average sample-average blank)/(average total-average blank) where sample is the luminescence activity in the presence of test compound, blank is equal to the luminescence activity in the presence of DMSO control and the total is signal induced by 50 μM linolenic acid as reference compound. […] After correcting for background, EC50 values were determined. […]
In general terms: Bead proximity is the source of the signal in Alpha formats.
For orientation: EC50 means the concentration giving half of the maximal effect. Molecule `O=C(O)C1CC1COc1ccc(-c2cc(Oc3ccccc3)ccc2F)cc1` (single isomer, unassigned) [58] had an EC50 of 0.11 µM.

`CCOc1ccc(F)c(-c2ccc(CC[C@@H]3C[C@H]3C(=O)O)cc2)c1` (relative stereo) displayed an EC50 of 1.25 µM.

Take `O=C(O)[C@@H]1C[C@H]1COc1ccc(-c2cc(Oc3ccccc3)ccc2F)cc1` (relative stereo): the concentration giving a half-maximal response (EC50) was 0.45 µM.

`COc1ccc(F)c(-c2ccc(OC[C@@H]3C[C@H]3C(=O)O)cc2)c1` (relative stereo) yielded an EC50 of 2.28 µM. This EC50 is about 5.1-fold higher than that of the molecule before.

As for `O=C(O)C1CC1COc1ccc(-c2cc(Oc3ccccc3)ccc2F)cc1` (single isomer, unassigned) [57], the EC50 was 0.12 µM.
